Literature values in patent US20040116535A1, “Use” (priority 2001, published 2004).

Details: 200 mg 3 times daily; at the end of the 8 hour dose interval; cited from earlier work

For “1-(2,6-dimethylphenoxy)-propanamine [mexiletine]”, the “patients with subtherapeutic plasma level” value is given as about 50%.
